Data published in paper PMC9780223.

Molecular target: purified recombinant PAPP-A free of STC2 (apo PAPP-A) (human) (UniProt Q13219)
Test: MST
Settings: natural protein

- Kd: 330 nM
Substance: recombinant STC1 (stanniocalcin-1) (from UniProt P52823 34-247)
